Target: SHP2 (Homo sapiens (Human), UniProt Q06124)
Test: SHP2 Allosteric Inhibition Assay
Type: biochemical
From the text: SHP2 Allosteric Inhibition Assay
SHP2 is allosterically activated through binding of bis-tyrosyl-phosphorylated peptides to its Src Homology 2 (SH2) domains. The latter activation step leads to the release of the auto-inhibitory interface of SHP2, which in turn renders the SHP2 protein tyrosine phosphatase (PTP) active and available for substrate recognition and reaction catalysis. The catalytic activity of SHP2 was monitored using the surrogate substrate DiFMUP in a prompt fluorescence assay format.
After 30-60 minutes incubation at 25° C., the surrogate substrate DiFMUP (Invitrogen, cat #D6567) was added to the reaction and incubated at 25° C. for 30 minutes. […] The inhibitor dose response curves were analyzed using normalized IC50 regression curve fitting with control based normalization.

Amino acid sequences for entries named in this document (tags omitted).
UniProt Q06124, whole entry: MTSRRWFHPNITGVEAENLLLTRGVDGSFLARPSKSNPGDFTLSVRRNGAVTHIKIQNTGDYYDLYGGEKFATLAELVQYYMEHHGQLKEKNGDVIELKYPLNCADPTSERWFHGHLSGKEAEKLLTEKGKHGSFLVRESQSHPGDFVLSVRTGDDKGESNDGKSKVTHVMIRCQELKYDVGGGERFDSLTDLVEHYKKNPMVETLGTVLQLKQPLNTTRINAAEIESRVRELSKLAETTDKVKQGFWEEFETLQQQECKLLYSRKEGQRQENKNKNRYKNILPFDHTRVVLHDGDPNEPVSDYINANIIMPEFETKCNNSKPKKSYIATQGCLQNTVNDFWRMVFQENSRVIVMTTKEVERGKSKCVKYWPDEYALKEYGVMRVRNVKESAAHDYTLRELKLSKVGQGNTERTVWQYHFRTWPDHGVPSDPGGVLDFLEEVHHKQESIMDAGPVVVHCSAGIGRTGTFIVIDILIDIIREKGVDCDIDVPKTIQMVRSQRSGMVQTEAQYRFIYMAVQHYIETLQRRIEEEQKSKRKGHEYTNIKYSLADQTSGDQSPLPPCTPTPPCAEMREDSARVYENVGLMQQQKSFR

Compound `C[C@@H]1OCC2(CCN(c3nc4[nH]nc(-c5ccnc(Cl)c5Cl)c4c(=O)n3C)CC2)[C@@H]1N` [Example 1, 6-((3S,4S)-4-amino-3-methyl-2-oxa-8-azaspiro[4.5]decan-8-yl)-3-(2,3-dichloropyridin-4-yl)-5-methyl-1,5-dihydro-4H-pyrazolo[3,4-d]pyrimidin-4-one] has an IC50 of 28 nM.

Reference: patent US10975080B2, “Compounds and compositions for inhibiting the activity of SHP2” (NOVARTIS AG, priority 2015, dated 2021)
